What all share (assay): FOREST: bead pull-down of RNA structure library v1, barcode microarray; U1A/LIN28A: 20 mM HEPES pH 7.5, 80 mM KCl, 20 mM NaCl, 10% glycerol, 2 mM DTT, 0.1 ug/uL BSA, 4 C; BG4/CIRBP/DHX36: 10 mM Tris-HCl pH 7.5, 100 mM KCl (or LiCl),; high values mean tight binding
One test deals with U1A (Homo sapiens, UniProt P09012).
A further test deals with T1, LIN28A (human?, UniProt Q9H9Z2 1-209).
T1 sequence: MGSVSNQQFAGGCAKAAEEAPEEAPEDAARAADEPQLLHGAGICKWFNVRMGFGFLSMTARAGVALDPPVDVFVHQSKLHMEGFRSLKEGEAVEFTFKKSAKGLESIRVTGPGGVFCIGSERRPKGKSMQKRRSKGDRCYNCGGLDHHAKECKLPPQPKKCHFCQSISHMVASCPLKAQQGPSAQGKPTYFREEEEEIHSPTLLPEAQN

The target of another test is T2, CIRBP (Homo sapiens, UniProt Q14011 1-172).
T2 sequence: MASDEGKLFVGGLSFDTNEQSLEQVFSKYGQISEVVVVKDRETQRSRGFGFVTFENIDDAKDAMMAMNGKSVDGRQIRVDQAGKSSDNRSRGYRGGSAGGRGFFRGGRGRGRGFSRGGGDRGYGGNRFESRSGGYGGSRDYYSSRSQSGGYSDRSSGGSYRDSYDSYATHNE

The next test has as its target T3, DHX36 (Homo sapiens, UniProt Q9H2U1 1-1008).
T3 sequence: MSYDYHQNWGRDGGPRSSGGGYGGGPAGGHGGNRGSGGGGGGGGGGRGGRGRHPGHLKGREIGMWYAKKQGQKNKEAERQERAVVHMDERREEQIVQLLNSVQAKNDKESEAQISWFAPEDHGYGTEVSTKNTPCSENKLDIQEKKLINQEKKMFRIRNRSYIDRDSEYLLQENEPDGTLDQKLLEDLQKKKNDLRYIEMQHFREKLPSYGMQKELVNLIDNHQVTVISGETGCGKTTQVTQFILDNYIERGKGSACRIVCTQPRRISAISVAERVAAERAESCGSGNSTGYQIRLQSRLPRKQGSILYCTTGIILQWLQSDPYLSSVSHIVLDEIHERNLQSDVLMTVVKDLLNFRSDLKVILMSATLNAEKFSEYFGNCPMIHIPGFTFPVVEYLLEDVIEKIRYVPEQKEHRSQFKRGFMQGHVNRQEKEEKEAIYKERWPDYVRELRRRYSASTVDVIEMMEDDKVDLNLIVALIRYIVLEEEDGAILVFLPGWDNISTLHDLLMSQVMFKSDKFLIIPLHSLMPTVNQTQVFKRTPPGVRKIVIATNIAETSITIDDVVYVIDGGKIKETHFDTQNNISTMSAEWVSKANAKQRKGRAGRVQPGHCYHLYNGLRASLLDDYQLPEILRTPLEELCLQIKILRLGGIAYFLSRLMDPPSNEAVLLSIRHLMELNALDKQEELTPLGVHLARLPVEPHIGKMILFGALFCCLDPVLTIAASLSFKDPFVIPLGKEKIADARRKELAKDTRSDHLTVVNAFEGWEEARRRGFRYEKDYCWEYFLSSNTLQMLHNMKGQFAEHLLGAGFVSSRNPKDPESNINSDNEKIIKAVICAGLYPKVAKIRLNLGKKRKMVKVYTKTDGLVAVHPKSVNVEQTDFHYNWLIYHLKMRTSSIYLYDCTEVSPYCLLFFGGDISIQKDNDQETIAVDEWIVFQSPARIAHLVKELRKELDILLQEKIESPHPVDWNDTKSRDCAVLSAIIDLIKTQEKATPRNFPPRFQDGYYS

This is one part of the list.

The results in this text go back to PMC7723054.

B1: hsa-mir-3156-3 (structured_RNA)
RNA: GGGACAAGGGUAAGCAUGAGCAUCGUCUGGUGUACGAAGUUUCAGCGACACUUUCACUAUAUAUAGUGGCGCUGAAGCUUCGUGCAC
Regarding B1, the binding signal with U1A was 0.66 z-score; with LIN28A, -0.581 z-score; with CIRBP, -0.0634 z-score; with DHX36 it was -0.571 z-score.

B2: hsa-mir-4747 (structured_RNA)
RNA: GGGAAGCUGAUUGUCCAAGCCUCUGAUCGGUGUACGAAGUUUCAGCUCUUAGCACGGGGUCUAAGGGCUGAAGCUUCGUGCAC
Take B2: the binding signal in the test with U1A was 0.676 z-score; with LIN28A, -1.2 z-score; with CIRBP, -0.633 z-score; in the test with DHX36, -0.445 z-score.

B3: hsa-mir-6778 (structured_RNA)
RNA: GGGAGCGUCUGUAGGCGUAUUUCAAGCAGGUGUACGAAGUUUCAGCGGCAGGUGUGGUUGGAGGAAGCAGCCUGAACCUGCCGCUGAAGCUUCGUGCAC
B3: the binding signal with U1A is 0.662 z-score; in the test with LIN28A, -0.599 z-score; with CIRBP, 0.349 z-score; with DHX36, 2.13 z-score.

B4: hsa-mir-6888 (structured_RNA)
RNA: GGGAGUAUCGCACGUAUAAACACCGGAAGGUGUACGAAGUUUCAGCAGAUCUGUCUCUGAUUGUUUCCAAGAUCUGCUGAAGCUUCGUGCAC
As to B4, the binding signal in the test with U1A was 0.677 z-score; with LIN28A, -0.119 z-score; in the test with CIRBP, 0.155 z-score; with DHX36, 0.968 z-score.

B5: hsa-mir-6076 (structured_RNA)
RNA: GGGGAACGAGGAAAGAAUGCAUUGUAGCGGUGUACGAAGUUUCAGCGUGGAGGUAGGCGAGAGUAAUAUAAUUUCUCCAGGAGAACAUCUGAGAGGGGAAGUUGCUUUCCUGCCCUGGCCCUUUCACGCUGAAGCUUCGUGCAC
For B5, the binding signal is 0.669 z-score in the test with U1A, 0.936 z-score with LIN28A, -1.94 z-score in the test with CIRBP and 2.27 z-score with DHX36.

B6: hsa-mir-4499 (structured_RNA)
RNA: GGGAACUAAUUAGACCAUACCGCACGGGGGUGUACGAAGUUUCAGCGGGAACUGGUGAGUUGUACAUAGAAAUGCUUUCUAACUCCGCUGAAGCUUCGUGCAC
Turning to B6, the binding signal is 0.66 z-score with U1A, -0.503 z-score with LIN28A, -0.736 z-score in the test with CIRBP and -0.51 z-score with DHX36.

B7: hsa-mir-142 (structured_RNA)
RNA: GGGAACAUGCCCAUGGCCUAUAGUCAGCGGUGUACGAAGUUUCAGCUACUAACAGCACUGGAGGGUGUAGCUGAAGCUUCGUGCAC
B7: the binding signal in the test with U1A was 2.23 z-score; in the test with LIN28A, 0.272 z-score; with CIRBP it was -0.388 z-score; with DHX36, -0.362 z-score.

B8: hsa-mir-3147 (structured_RNA)
RNA: GGGAAUUUGACGUAGAGGCCAGACUUGGGGUGUACGAAGUUUCAGCGUGACGCCGCGAAGUGCACGCUGAAGCUUCGUGCAC
With B8, the binding signal was 0.679 z-score with U1A, 0.442 z-score with LIN28A, 0.984 z-score with CIRBP and -0.0192 z-score in the test with DHX36.

B9: hsa-mir-6842 (structured_RNA)
RNA: GGGACGGGUCAAACGAAAUAUUCAAGAGGGUGUACGAAGUUUCAGCCCAAGGCUCUGGGGUCUCACCCUUGGGCUGAAGCUUCGUGCAC
On to B9, for which the binding signal with U1A was 0.678 z-score; with LIN28A, 0.0967 z-score; in the test with CIRBP, -0.317 z-score; with DHX36, -0.0425 z-score.

B10: hsa-mir-300 (structured_RNA)
RNA: GGGAGGUGGCCCCAACACCCCUAAUAUGGGUGUACGAAGUUUCAGCCACGCAUUUGCUUUACUUGCAAUGAUUAUAGCUGAAGCUUCGUGCAC
For the molecule B10, the binding signal with U1A is 0.669 z-score; with LIN28A, -0.877 z-score; with CIRBP it was -2.15 z-score; with DHX36 it was -1.55 z-score.

B11: hsa-mir-3120 (structured_RNA)
RNA: GGGAAAGCCCAAGGACGGAGUGUAAUAUGGUGUACGAAGUUUCAGCUGUACAGGUGAGCGGAUGUUCUGCACAGCUGAAGCUUCGUGCAC
B11: the binding signal with U1A is 0.657 z-score; in the test with LIN28A it was -0.0106 z-score; in the test with CIRBP, -0.679 z-score; in the test with DHX36 it was -0.229 z-score.
